Tests used:
OX2 = OX2 (Homo sapiens, UniProt O43614); assay: Measurement of orexin receptor-binding ability ([125I]-OX-A, cell membranes, OX2); details: read-out: OX2 (IC50) nM; membranes of recombinant CHO cells expressing OX2, 0.2 nM [125I]-OX-A
OX1 = OX1 (Homo sapiens, UniProt O43613); assay: Measurement of orexin receptor-binding ability ([125I]-OX-A, cell membranes, OX1); details: read-out: OX1 (IC50) nM; membranes of recombinant CHO cells expressing OX1, 0.2 nM [125I]-OX-A

By UniProt entry, the sequences of proteins in these tests, tags left out.
UniProt O43614, whole entry: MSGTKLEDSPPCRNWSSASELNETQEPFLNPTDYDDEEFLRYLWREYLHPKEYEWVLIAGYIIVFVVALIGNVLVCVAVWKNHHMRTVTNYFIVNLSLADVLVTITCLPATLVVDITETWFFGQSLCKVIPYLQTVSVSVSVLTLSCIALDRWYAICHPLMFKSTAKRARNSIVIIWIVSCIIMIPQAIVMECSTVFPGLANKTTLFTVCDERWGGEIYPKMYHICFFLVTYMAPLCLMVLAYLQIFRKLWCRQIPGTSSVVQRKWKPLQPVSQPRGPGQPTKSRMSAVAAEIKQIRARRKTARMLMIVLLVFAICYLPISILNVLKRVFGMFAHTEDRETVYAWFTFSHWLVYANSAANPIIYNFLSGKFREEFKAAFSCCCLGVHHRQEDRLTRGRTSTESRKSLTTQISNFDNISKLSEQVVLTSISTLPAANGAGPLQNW
UniProt O43613, whole entry: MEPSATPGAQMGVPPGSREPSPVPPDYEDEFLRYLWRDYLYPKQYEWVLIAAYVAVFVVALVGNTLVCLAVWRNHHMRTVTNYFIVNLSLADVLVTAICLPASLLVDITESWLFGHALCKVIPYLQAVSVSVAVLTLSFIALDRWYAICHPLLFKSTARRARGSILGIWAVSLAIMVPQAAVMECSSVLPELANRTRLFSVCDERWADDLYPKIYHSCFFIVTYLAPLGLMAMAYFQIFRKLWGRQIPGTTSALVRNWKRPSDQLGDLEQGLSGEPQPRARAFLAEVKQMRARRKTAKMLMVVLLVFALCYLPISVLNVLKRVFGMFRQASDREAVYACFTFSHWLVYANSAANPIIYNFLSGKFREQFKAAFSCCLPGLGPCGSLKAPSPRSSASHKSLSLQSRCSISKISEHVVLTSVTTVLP

## Cc1ncc(OCC2(c3cccc(F)c3)CC2C(=O)Nc2ccc(Cl)cn2)c(C)n1 (stereo not drawn)
OX2
  IC50: 10 nM
OX1
  IC50: 18 nM

## Cc1ncc(OC[C@@]2(c3ccc(F)cc3)C[C@H]2C(=O)Nc2cc(Cl)ccn2)c(C)n1
OX2
  IC50: 73 nM
